This is an account of results in patent US20230181729A1 (published 2023).

The target in the assay is T1, PRAME (PRAME-004) peptide on HLA-A*02:01 (human).
T1 peptide: SLLQHLIGL
The assay can be described thus: cytokine release.

B1: R17P1G3 (TCR, V domains shown)
Valpha: QKEVEQNSGPLSVPEGAIASLNCTYSDRGSQSFFWYRQYSGKSPELIMSIYSNGDKEDGRFTAQLNKASQYVSLLIRDSQPSDSATYLCAVGPSGTYKYIFGTGTRLKVLA
Vbeta: EAQVTQNPRYLITVTGKKLTVTCSQNMNHEYMSWYRQDPGLGLRQIYYSMNVEVTDKGDVPEGYKVSRKEKRNFPLILESPSPNQTSLYFCASSPGGSGNEQFFGPGTRLTVL
In the case of B1, the binding result is given as “recognises”.
